The target of test [1] is human CD64 receptor expressed by Jurkat cells (Jurkat-CD64) (human) (UniProt P12314). Kind of test: flow cytometry competition on Jurkat-CD64 cells, displacement of Rituxan-A488 (25 µg/ml).
The target of test [2] is human CD16aH receptor on transfected Jurkat cells (Jurkat-CD16aH) (human) (UniProt P08637). As to the kind of experiment: flow cytometry competition on Jurkat-CD16aH cells, displacement of mAb 3G8-PE (0.5 µg/ml). In general terms: Flow cytometry measures light scatter and fluorescence of single cells or particles in a stream.
Test [3] addresses human FcRn receptor expressed by Jurkat cells (Jurkat-FcRn) (human) (UniProt P55899). Kind of test: flow cytometry competition on Jurkat-FcRn cells, displacement of Rituxan-A488 (25 µg/ml), pH 6.
Test [4] deals with Fc receptors on the surface of the effector cells. As to the kind of experiment: cell-based or functional assay.
Test [5] has as its target human CD64 receptor expressed by Jurkat cells (Jurkat-CD64) (human) (UniProt P12314). As to the kind of experiment: cell-based or functional assay.
The target in test [6] is HisTag hCD16aV receptor (R&D System) (human) (UniProt P08637). Kind of test: BLI (Octet), HisTag hCD16aV on anti-Penta-HIS biosensors, 1/1 model; SD 72.7. In general terms: BLI is a label-free optical method that tracks binding on a fibre tip over time.

By UniProt entry, the sequences of proteins in these tests, tags left out. Residues count along the entry.
UniProt P55899, 24-365, chain 1 of 2: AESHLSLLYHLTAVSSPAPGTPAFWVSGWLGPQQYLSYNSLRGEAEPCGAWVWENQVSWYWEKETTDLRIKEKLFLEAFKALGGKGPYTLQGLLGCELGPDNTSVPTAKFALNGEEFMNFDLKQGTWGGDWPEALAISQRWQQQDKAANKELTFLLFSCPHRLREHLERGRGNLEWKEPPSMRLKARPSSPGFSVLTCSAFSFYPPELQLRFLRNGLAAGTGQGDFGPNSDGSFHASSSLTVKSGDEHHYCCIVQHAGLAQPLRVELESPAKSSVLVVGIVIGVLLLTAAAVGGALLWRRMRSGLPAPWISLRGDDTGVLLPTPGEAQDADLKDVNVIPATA

Broadly, the IC50 is the concentration that gives 50% inhibition. Low readings indicate greater potency in that assay, high ones weaker potency in that assay. What is called Kd is a measure of binding affinity in units of concentration. A higher Kd goes with a looser complex. With “wild-type Fc fragment Fc-WT or Fc-Rec, obtained by digesting with papain an IgG1 produced in transgenic goat milk (from UniProt P01857 108-330)”, the half-maximal inhibitory concentration (IC50) in test [1] was found to be 176 nM. This substance also displayed an IC50 in test [2] of 282 nM. Besides, in test [3], the half-inhibitory concentration (IC50) turned out to be 476 nM. In test [4], this substance gave an Inhibition of the lysis of the red blood cells medited by the anti-D AD1 (IC 25%, nM) of 82 nM and an Inhibition of the lysis of the red blood cells medited by the anti-D AD1 (IC 50%, nM) of 1500 nM. Moreover, in test [5], the Inhibition of the secretion of IL-2 of the Jurkat cells transfected with CD64 (IC 25%, nM) came out at 926 nM and the Inhibition of the secretion of IL-2 of the Jurkat cells transfected with CD64 (IC 50%, nM) is < 1950 nM. In test [6], this substance displayed a dissociation constant Kd of 314 nM.
